For this test, the system named is BAD Ser155 phosphorylation in HeLa cells. Nature of the test: BAD phosphorylation in HeLa cells (western blot band-shift / anti-phospho-Ser155 antibody). It counts as cell-based, human. As to conditions: transfected HeLa cells treated with the agent.

In the case of “TSH: thyroid stimulating hormone, GPCR ligand”, the “induction of band-shift (Ser155 phosphorylation) of HA-BAD S112A/S136A” value is on record as “neither TK (FIG. 6(a), lane 3) nor ACTH (FIG. 6(b), lane 5) alone induces a similar band-shift”.
